Source: patent US20250376517A1 (AKESO BIOPHARMA, published 2025)

Target: T1, human Claudin18.2 (CLDN18.2) on the surface of CHO-K1-CLDN18.2 cells (human, UniProt P56856-2 1-261)
T1 construct: whole, on cells; Membrane protein overexpressed on CHO-K1 cells; also called hCLDN18.2; antigen on the surface of CHO-K1-CLDN18.2 cell
Assay: cell ELISA on CHO-K1-CLDN18.2 cells
Description: CHO-K1-CLDN18.2 cells (Chinese hamster ovary cells CHO-K1 overexpressing CLDN18.2, CHO-K1 purchased from Cell Resource Center, Institute of Basic Medical Sciences, Chinese Academy of Medical Sciences, Cat. No.: 3111C0001CCC000004) were plated on a cell plate (Corning, 3599) at 2×10⁴ cells/well and cultured overnight at 5% CO₂ and 37° C., and then the cell plate in which the cells were incubated was washed once with PBST and blocked for 2 h at 37° C. using PBST containing 1% BSA as a blocking solution. After blocking, the plate was washed 3 times with PBST. The ELISA plate containing the test antibodies was incubated at 37° C. for 30 min and then washed 3 times with PBST. […] Then, the plate was incubated at 37° C. for 30 min. After incubation, the plate was washed 4 times with PBST, TMB (Neogen, 308177) was added for color developing in the dark for 5 min, and then a stop solution was added to terminate the chromogenic reaction. The ELISA plate was put into a microplate reader immediately, and the OD value of each well in the ELISA plate was read at 450 nm. The data were analyzed and processed by SoftMax Pro 6.2.1.

EC50: 0.11 nM
B1: humanized anti-human CLDN18.2 antibody 8C5.1H3L3 (antibody, human IgG1, kappa, V domains shown)
VH: EVQLVESGGGLVKPGGSLRLSCAASGFTFSNSAVSWVRQAPGKGLEWVSSITSGVSYTYYADSVKGRFTISRDNAKNSLYLQMNSLRAEDTAVYYCTRQFKGNALDYWGQGTSVTVSS
VL: DIVMTQSPSSLSVSPGERVTISCKSSQSLLNSGNQKNYLAWYQQKPGQPPKLLIYWASTRESGVPDRFSGSGSGTDFTLTISSLQAEDVAVYYCQNDYFYPLTFGAGTKLELKR
